According to US4610994A, “1,2,3-triazole anticonvulsant drugs” (priority 1984, dated 1986):

Legend:
[1] = tested on: maximal electroshock seizures; test: maximal electroshock seizure (MES) pattern test in rats; details: p.o.
[2] = tested on: subcutaneous Metrazol seizures; test: subcutaneous Metrazol Seizure Threshold Test (sc Met) in mice

O=C1NC(=O)C(c2ccccc2)(c2ccccc2)N1 [Phenytoin]
P.I. by the MES test [1]: > 100 | P.I. by the sc Met test ([2]; mice, p.o.): < 0.29

CCC1(c2ccccc2)C(=O)NC(=O)NC1=O [Phenobarbital]
effectiveness by the sc Met test ([2]; mice i.p.): effective by all four anticonvulsant tests
